The target in this assay is T1, Neuropeptide Y receptor type 5 (Rattus norvegicus, UniProt Q63634).
T1 sequence (Q63634 whole entry): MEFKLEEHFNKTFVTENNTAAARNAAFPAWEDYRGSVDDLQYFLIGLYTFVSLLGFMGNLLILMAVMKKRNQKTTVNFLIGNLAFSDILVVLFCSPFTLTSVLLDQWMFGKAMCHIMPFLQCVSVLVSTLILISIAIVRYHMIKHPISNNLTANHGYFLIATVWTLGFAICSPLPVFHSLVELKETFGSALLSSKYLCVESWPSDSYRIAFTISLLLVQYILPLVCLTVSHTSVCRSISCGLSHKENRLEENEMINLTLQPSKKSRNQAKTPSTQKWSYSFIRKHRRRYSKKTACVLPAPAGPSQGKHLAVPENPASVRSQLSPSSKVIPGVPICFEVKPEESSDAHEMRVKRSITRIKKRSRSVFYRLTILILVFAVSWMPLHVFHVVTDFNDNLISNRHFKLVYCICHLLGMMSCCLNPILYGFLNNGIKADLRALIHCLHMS

A word on the Ki: it is a measure of affinity in units of concentration, obtained from inhibition or displacement.

`CC[C@H](C)[C@H](NC(=O)[C@H](Cc1ccc(O)cc1)NC(=O)[C@H](Cc1cnc[nH]1)NC(=O)[C@H](CCCN=C(N)N)NC(=O)[C@H](CC(C)C)NC(=O)[C@H](C)NC(=O)[C@H](CO)NC(=O)[C@H](Cc1ccc(O)cc1)NC(=O)[C@H](Cc1ccc(O)cc1)NC(=O)[C@H](CCCN=C(N)N)NC(=O)[C@H](C)NC(=O)[C@H](CCSC)NC(=O)[C@H](CC(=O)O)NC(=O)[C@H](CCC(=O)O)NC(=O)[C@H](C)NC(=O)[C@@H]1CCCN1)C(=O)N[C@@H](CC(N)=O)C(=O)N[C@@H](CC(C)C)C(=O)N[C@H](C(=O)N[C@H](C(=O)N[C@@H](CCCN=C(N)N)C(=O)N[C@@H](CCC(N)=O)C(=O)N[C@@H](CCCN=C(N)N)C(=O)N[C@@H](Cc1ccc(O)cc1)C(N)=O)[C@@H](C)O)[C@@H](C)CC` [NPY 13-36, human, rat] had a Ki of 11 nM.

These data come from BindingDB's records for doi:10.1074/jbc.271.42.26315 (Bayer, 1996).
